Measurements as given in patent US20230357271A1, “MACROCYCLIC COMPOUND” (Asahi Kasei Pharma Corporation, priority 2020, published 2023).

The chains behind the UniProt entries cited, without tags or fusion partners.
UniProt Q9NWZ3, whole entry: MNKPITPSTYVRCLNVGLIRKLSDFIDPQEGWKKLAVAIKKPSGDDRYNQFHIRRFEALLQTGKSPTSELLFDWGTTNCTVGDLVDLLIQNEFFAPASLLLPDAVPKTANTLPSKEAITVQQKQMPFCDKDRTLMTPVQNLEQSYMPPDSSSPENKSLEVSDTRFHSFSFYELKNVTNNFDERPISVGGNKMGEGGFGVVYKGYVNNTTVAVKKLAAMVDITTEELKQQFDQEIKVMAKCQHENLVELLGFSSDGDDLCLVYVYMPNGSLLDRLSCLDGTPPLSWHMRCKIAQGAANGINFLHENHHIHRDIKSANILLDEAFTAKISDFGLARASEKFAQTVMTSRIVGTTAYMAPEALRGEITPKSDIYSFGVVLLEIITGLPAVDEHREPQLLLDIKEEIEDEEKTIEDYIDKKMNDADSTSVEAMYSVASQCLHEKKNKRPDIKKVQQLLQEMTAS

Experiments:
human IRAK-4 = human IRAK-4 (Homo sapiens (Human), UniProt Q9NWZ3); assay: Measurement of human IRAK-4 inhibitory activity (TR-FRET); conditions: read-out: IC50 (nM), IRAK-4 inhibitory activity; 1 nM IRAK-4, 0.5 µM peptide substrate, 10 µM ATP, 23° C., 30 minutes
Experimental: For the measurement of the activity of the human IRAK-4 (Invitrogen, Cat. PV3362), phosphorylation of the IRAK-4 peptide substrate (biotin-KKKKRFSFKKSFKC) by the enzyme in the presence of 10 µM ATP (Sigma-Aldrich, Cat. A7699) was measured by the TR-FRET method. The enzymatic reaction was performed in a reaction buffer containing 50 mM HEPES (pH 7.2), 1 mM DTT, 0.1 mM Na3VO4, 5 mM MgCl2, 1 mM MnCl2, and 0.1% bovine serum albumin. For the measurement of the IRAK-4 inhibitory activity, a test compound was added to the reaction buffer containing 1 nM IRAK-4, 0.5 µM peptide substrate, and 10 µM ATP, and the mixture was incubated at 23° C. for 30 minutes. Then, a detection solution containing an antibody labeled with europium cryptate (0.3 µg/mL, the antibody was prepared by using the IRAK-4 peptide substrate as the antigen), streptavidin-XL665 (2 µg/mL, CisBio, Cat. 610SAXLB), 50 mM HEPES (pH 7.2), 0.1% BSA, 120 mM KF, and 66.7 mM EDTA (all the concentrations of the reagents are final concentrations) was added to terminate the reaction, and then the mixture was further incubated at 23° C. for 60 minutes. Fluorescence intensity was measured at wavelengths of 665 nm and 620 nm with a microplate reader, and the enzymatic activity was calculated as the ratio of fluorescence intensities at 665 nm and 620 nm (665 nm/620 nm). […]

[1] = tested on: human acute monocytic leukemia cell strain THP-1; assay: LPS-stimulated TNFα production inhibition test using THP-1 cells; conditions: read-out: IC50 ( µM), TNFα production inhibition, LPS 2.5 ng/mL, 4 hours, TNFα by HTRF
Experimental: By the THP-1 assay, influence of a test compound on the TNFα production induced by LPS stimulation can be evaluated. The THP-1 cells (ATCC, Cat. TIB-202) were inoculated on a 96-well plate at a density of 1 × 10^5 cells/160 µL/well, a test compound was added in a volume of 20 µL, and the plate was incubated at 37° C. for 1 hour in a 5% CO2 incubator. Then, LPS in a volume of 20 µL (final concentration 2.5 ng/mL, Sigma, Cat. L2630) was added, and the plate was further incubated for 4 hours. After the incubation, the plate was centrifuged, and 100 µL of the supernatant was taken from each well, and used for evaluation of the amount of TNFα using HTRF (Cisbio, Cat. 62TNFPEB). In the measurement of the amount of TNFα, the supernatant was diluted twice with the medium, and then added to wells of a 384-well plate in a volume of 10 µL, then anti-TNFα-cryptate (5 µL), and anti-TNFα-XL665 (5 µL) were added, and the plate was left standing overnight. The fluorescence intensity ratio for the wavelengths of 620 and 665 nm (620 nm/665 nm) was measured with a microplate reader, and the amount of TNFα in the supernatant was calculated by using a calibration curve. […]

What does the source list for `CCN1CC[C@H]2C[C@H]1C(=O)NCC(F)COc1c(-c3cnc(C)nc3)ccc3ncc(cc13)N2` (some centres unmarked)?
IC50 (human IRAK-4): 1.02 nM; IC50 [1]: 0.045 µM
